Experiments:
[1] = molecular target: IKZF1 (Homo sapiens, UniProt Q13422+Q96SW2); test: HEK293 HiBiT in vitro degradation of IKZF1; details: for EC50: read-out: IKZF1 EC50, 18-24 hr incubation, normalized to DMSO control; for IKZF1 Dmax: maximum degradation at the highest concentration tested
[2] = molecular target: IKZF2 (Homo sapiens, UniProt Q96SW2+Q9UKS7); test: HEK293 HiBiT in vitro degradation of IKZF2; details: for IKZF2 Dmax: maximum degradation at the highest concentration tested; for EC50: read-out: IKZF2 EC50, 18-24 hr incubation, normalized to DMSO control
[3] = molecular target: SALL4 (Homo sapiens, UniProt Q96SW2+Q9UJQ4); test: HEK293 HiBiT in vitro degradation of SALL4; details: read-out: SALL4 EC50, 18-24 hr incubation, normalized to DMSO control

Amino acid sequences for entries named in this document (tags omitted). Residues count along the entry.
UniProt Q13422, whole entry: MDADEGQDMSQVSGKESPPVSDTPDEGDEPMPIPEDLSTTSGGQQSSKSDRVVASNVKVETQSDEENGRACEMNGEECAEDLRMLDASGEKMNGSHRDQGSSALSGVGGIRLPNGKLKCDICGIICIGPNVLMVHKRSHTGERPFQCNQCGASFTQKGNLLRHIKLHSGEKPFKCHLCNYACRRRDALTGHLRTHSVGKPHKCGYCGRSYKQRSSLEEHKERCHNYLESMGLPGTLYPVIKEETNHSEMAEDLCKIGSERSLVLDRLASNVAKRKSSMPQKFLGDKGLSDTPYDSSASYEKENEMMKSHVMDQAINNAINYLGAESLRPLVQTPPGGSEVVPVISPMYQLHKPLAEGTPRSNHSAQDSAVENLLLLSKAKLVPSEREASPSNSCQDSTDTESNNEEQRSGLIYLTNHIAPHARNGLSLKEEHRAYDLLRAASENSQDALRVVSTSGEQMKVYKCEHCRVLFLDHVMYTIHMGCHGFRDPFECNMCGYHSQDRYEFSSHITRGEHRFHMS
UniProt Q96SW2, whole entry: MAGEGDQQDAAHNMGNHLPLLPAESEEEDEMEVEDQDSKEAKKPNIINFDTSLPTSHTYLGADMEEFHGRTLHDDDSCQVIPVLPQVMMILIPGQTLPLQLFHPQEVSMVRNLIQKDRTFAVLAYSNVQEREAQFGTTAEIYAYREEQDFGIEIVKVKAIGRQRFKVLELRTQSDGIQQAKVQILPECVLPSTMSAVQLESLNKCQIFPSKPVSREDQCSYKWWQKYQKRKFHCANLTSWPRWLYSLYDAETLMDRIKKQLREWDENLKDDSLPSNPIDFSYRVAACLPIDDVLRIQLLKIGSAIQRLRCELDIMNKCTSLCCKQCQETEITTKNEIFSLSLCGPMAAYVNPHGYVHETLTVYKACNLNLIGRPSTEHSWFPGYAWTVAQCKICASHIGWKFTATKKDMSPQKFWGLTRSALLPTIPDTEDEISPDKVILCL
UniProt Q9UKS7, 1-500 isoform 2: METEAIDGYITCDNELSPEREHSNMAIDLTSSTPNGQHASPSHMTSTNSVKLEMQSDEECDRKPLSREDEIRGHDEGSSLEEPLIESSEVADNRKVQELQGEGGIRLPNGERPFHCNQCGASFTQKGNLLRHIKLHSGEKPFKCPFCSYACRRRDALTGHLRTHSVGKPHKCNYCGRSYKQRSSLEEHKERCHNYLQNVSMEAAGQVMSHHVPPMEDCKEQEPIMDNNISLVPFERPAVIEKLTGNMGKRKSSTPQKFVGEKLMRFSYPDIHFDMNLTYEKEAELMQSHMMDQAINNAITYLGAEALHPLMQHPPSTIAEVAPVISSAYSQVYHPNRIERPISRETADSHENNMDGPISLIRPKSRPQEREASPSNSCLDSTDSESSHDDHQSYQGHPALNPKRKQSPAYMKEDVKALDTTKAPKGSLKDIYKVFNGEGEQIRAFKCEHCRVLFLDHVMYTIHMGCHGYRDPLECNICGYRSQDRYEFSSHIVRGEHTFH
UniProt Q9UJQ4, whole entry: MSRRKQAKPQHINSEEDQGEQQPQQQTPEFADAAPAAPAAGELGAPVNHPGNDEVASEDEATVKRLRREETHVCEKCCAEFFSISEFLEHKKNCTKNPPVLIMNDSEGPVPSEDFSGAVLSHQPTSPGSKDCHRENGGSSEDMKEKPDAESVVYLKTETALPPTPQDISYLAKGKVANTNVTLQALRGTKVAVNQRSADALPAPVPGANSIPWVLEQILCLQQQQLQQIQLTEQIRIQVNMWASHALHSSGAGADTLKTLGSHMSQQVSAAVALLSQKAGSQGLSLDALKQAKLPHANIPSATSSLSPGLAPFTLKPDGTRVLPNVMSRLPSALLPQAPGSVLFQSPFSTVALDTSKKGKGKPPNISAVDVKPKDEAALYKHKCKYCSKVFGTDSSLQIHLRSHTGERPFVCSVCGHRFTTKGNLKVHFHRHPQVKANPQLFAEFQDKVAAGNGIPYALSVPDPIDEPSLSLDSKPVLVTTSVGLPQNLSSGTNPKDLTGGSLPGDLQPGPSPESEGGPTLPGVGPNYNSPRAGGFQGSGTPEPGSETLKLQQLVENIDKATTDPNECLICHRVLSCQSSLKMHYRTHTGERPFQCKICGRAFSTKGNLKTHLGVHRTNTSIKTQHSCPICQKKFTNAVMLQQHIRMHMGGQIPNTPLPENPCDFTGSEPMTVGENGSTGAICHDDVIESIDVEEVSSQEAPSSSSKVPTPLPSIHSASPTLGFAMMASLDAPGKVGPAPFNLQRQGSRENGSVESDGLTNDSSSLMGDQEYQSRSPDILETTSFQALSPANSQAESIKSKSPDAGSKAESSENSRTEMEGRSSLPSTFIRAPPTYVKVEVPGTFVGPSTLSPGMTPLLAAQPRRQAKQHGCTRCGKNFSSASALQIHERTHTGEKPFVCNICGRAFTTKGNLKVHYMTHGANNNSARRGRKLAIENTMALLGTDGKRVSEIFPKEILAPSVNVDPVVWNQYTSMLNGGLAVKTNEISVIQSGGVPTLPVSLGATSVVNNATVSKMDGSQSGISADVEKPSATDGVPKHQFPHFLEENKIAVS
UniProt Q16531, whole entry partner: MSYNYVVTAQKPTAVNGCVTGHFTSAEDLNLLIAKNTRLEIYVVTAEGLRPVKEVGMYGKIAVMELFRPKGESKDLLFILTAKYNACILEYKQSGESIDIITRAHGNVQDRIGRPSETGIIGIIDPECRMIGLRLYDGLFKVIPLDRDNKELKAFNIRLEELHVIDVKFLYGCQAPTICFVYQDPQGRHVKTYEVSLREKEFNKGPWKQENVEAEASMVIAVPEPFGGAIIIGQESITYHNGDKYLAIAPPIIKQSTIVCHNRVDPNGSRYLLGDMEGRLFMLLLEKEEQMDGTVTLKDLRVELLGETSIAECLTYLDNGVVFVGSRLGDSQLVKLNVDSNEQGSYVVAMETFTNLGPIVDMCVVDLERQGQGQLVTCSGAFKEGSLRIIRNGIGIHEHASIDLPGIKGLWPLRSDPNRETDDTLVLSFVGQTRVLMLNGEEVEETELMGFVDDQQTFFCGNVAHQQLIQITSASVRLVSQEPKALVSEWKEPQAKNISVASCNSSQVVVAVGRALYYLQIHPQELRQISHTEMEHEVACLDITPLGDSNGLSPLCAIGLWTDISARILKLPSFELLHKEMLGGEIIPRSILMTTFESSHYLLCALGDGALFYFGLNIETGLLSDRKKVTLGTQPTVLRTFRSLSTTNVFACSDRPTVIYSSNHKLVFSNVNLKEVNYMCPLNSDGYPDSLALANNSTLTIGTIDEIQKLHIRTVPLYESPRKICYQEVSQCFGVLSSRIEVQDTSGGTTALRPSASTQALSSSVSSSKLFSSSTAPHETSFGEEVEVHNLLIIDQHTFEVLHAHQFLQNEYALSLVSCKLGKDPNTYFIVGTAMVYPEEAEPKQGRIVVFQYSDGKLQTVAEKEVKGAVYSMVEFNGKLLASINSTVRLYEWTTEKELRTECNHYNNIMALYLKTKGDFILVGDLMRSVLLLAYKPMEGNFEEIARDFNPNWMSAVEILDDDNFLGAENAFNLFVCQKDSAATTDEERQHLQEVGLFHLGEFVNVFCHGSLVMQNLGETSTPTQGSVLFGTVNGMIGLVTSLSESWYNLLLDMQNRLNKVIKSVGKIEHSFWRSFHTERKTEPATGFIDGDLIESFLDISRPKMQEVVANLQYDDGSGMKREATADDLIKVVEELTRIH

| SMILES | EC50 [1] | IKZF2 Dmax [2] | EC50 [2] | IKZF1 Dmax [1] | EC50 [3] |
| --- | --- | --- | --- | --- | --- |
| CC1(C)C2CC(N[C@H]3CCCC[C@@H]3Cc3ccc4c(c3F)CN(C3CCC(=O)NC3=O)C4=O)CC21 (stereo partly drawn) | 0.038 µM | 98% | 0.003 µM | 60% | – |
| O=C1CCC(N2Cc3c(ccc(C[C@H]4OCCC[C@@H]4NC4CCCOCC4)c3F)C2=O)C(=O)N1 (stereo partly drawn) | > 1 µM | 95% | 0.009 µM | – | > 10 µM |
| O=C1CCC(N2Cc3c(ccc(C[C@H]4CCCC[C@@H]4NC4CC5CC5C4)c3F)C2=O)C(=O)N1 (stereo partly drawn) | 0.035 µM | 98% | 0.001 µM | 43% | – |

Other lines, results leading:

| EC50 [1] | IKZF2 Dmax [2] | EC50 [2] | IKZF1 Dmax [1] | EC50 [3] | SMILES |
| --- | --- | --- | --- | --- | --- |
| > 1 µM | 73% | 0.055 µM | – | – | CCOCCN[C@H]1CCCC[C@@H]1Cc1ccc2c(c1)CN(C1CCC(=O)NC1=O)C2=O (stereo partly drawn) |
| > 1 µM | 93% | 0.017 µM | – | – | O=C1CCC(N2Cc3cc(C[C@H]4CCC[C@@H](F)[C@@H]4NC4CCCCC4)ccc3C2=O)C(=O)N1 (relative stereo) |
| 0.121 µM | 94% | 0.071 µM | 38% | > 10 µM | O=C1CCC(N2Cc3cc(C[C@H]4CCCC[C@@H]4NC4CCCc5cn[nH]c54)ccc3C2=O)C(=O)N1 (stereo partly drawn) |
| 0.08 µM | 96% | 0.002 µM | 62% | – | O=C1CCC(N2Cc3cc(C[C@H]4CCC(F)(F)C[C@@H]4NC4CCCCC4)ccc3C2=O)C(=O)N1 (relative stereo) |

— patent US11897862B2 (Gilead Sciences, Inc., priority 2022, dated 2024)
